Measurements published in PMC12135508 (Antimicrobial Agents and Chemotherapy, 2025).

Protein sequences, listed by entry. Tags and fused reporters are not part of them. Residues count along the entry.
UniProt Q9F663, 25-240, added parts left off, stated change not applied: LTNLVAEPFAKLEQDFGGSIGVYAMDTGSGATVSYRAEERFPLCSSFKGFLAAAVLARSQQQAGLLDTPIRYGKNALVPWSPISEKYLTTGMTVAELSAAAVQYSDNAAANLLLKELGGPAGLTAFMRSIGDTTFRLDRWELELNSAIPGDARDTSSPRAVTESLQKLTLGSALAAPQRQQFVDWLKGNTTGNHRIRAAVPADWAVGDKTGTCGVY
UniProt Q9F663, 25-293 limits assumed: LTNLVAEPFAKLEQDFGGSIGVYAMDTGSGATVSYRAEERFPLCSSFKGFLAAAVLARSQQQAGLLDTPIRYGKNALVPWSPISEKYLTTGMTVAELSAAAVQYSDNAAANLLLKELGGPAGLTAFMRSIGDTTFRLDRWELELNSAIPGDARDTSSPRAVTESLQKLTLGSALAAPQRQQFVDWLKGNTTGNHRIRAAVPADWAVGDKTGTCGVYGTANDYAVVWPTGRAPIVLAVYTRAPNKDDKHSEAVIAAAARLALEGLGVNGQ

Assays:
KPC-14 = KPC-14 (Klebsiella pneumoniae, UniProt Q9F663, DEL241-242); assay: Inhibition kinetics of DBO inhibitors on KPC-14 (nitrocefin competition); type: biochemical; parameters: amplify the entire blaKPC-14 gene with the cloning primers; made in house; host or cells: E. coli BL21(DE3), pET24a(+); conditions: nitrocefin reporter, corrected, read-out: Ki app
KPC-2 = biological target: T1, KPC-2 (Klebsiella pneumoniae, UniProt Q9F663); assay: biochemical
T1 construct: The complete blaKPC-2 gene was amplified from whole DNA; made in house; host or cells: E. coli BL21(DE3), pET24a(+)

SMILES: O=C(NC1CCNCC1)[C@@H]1CC[C@@H]2CN1C(=O)N2OS(=O)(=O)O [Relebactam, relebactam]
- Ki (KPC-14): 22.9 ± 0.9 µM
- Ki (KPC-2): 0.06 ± 0.0007 µM
